Laboratory results as given in patent publication US5851983.

Columns and labels:
[1] = biological target: Calf pancreatic chymotrypsin (Sigma) (calf (bovine)) (UniProt P00766)
[2] = biological target: Calf pancreatic trypsin (Sigma) (calf (bovine)) (UniProt P00760)
[3] = biological target: Polymorphonuclear leukocyte elastase from human sputum (EPC Co.; Funakoshi Yakuhin) (human) (UniProt P08246)
[4] = biological target: Porcine pancreatic elastase (Sigma) (porcine) (UniProt P00772)
[5] = biological target: Human plasma kallikrein (human) (UniProt P03952)
[6] = biological target: Human plasma plasmin (human) (UniProt P00747)
[7] = biological target: Human plasma thrombin (human) (UniProt P00734)

concentration of inhibitory protein which exhibits a 50% inhibition [1]: 50 nM | concentration of inhibitory protein which exhibits a 50% inhibition [2]: 100 nM | concentration of inhibitory protein which exhibits a 50% inhibition [3]: 300 nM | concentration of inhibitory protein which exhibits a 50% inhibition [4]: > 2 µM | concentration of inhibitory protein which exhibits a 50% inhibition [5]: 70 nM | concentration of inhibitory protein which exhibits a 50% inhibition [6]: 5 nM | concentration of inhibitory protein which exhibits a 50% inhibition [7]: > 2 µM
Substance: aprotinin (Boehringer) (from UniProt P00974)
